# Source: article PMC7723054
# Some of the results follow.
# T1: LIN28A (human?, UniProt Q9H9Z2 1-209)
# T1 sequence: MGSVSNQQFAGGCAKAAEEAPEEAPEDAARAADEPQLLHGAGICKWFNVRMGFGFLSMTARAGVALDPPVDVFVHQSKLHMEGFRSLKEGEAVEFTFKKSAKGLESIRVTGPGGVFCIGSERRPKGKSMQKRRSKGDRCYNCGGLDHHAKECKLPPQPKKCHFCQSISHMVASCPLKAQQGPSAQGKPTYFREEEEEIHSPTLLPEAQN
# T2: CIRBP (Homo sapiens, UniProt Q14011 1-172)
# T2 sequence: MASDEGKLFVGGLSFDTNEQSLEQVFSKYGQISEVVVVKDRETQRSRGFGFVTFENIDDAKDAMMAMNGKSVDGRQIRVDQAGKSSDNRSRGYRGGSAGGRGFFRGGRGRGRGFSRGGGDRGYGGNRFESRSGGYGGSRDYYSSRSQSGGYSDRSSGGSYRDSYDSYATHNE
# T3: DHX36 (Homo sapiens, UniProt Q9H2U1 1-1008)
# T3 sequence: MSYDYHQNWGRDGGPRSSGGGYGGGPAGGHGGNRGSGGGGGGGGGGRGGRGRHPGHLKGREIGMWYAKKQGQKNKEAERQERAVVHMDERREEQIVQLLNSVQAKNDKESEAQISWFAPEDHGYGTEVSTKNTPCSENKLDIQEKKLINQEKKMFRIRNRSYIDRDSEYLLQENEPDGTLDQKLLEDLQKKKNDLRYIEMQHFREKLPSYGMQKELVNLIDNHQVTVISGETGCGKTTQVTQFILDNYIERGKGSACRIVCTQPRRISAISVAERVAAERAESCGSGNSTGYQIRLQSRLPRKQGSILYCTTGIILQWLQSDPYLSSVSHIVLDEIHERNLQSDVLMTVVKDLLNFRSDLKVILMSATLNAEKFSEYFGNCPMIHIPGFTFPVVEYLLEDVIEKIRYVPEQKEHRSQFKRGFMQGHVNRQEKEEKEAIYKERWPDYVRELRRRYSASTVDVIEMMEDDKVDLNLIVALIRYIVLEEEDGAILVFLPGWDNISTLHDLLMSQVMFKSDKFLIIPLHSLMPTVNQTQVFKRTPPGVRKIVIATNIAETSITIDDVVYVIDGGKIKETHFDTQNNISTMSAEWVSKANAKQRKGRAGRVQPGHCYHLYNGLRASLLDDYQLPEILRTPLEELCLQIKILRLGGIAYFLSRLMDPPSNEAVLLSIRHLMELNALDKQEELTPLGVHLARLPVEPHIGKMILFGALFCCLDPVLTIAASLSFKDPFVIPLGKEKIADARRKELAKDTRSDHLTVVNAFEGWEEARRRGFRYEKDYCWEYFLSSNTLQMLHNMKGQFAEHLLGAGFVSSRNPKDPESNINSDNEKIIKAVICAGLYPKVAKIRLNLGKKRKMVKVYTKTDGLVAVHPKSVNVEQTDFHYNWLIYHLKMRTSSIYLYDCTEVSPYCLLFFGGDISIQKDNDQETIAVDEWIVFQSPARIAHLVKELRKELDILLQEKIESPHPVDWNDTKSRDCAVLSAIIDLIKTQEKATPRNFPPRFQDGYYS
# B1: hsa-mir-4693 (structured_RNA)
# RNA: GGGAAGGUGACCAUAGUUAAAUGCGAUCGGUGUACGAAGUUUCAGCGUCACAAAUUCAAAUAAAGUGAGGCUGAAGCUUCGUGCAC
# B2: hsa-mir-4442 (structured_RNA)
# RNA: GGGAAAAGGCUCAACGUGAUGCUCGAAAGGUGUACGAAGUUUCAGCCGGUGUGCAAAUGUGUGUGUGCGGUGUUAUGCCGGCUGAAGCUUCGUGCAC
# B3: hsa-mir-3960 (structured_RNA)
# RNA: GGGAAGAUCGACGGAUUGUGCAACAGACGGUGUACGAAGUUUCAGCCGCUAGUAGUGGCGGCUGAAGCUUCGUGCAC
# B4: hsa-mir-877 (structured_RNA)
# RNA: GGGCAAAGACAACGGCGCACAAUUUGCUGGUGUACGAAGUUUCAGCAGGGGACACGGGCAAAGACUUGGGGGUUCCUGGGACCCUCAGACGUGUGUCCUCUGCUGAAGCUUCGUGCAC
# B5: hsa-mir-6861 (structured_RNA)
# RNA: GGGAAAACAGAAGAGCCAAUCGCCCUUGGGUGUACGAAGUUUCAGCUCCAGGGCUCCUGACACCUGGAGCUGAAGCUUCGUGCAC
# B6: hsa-mir-4705 (structured_RNA)
# RNA: GGGAAGAAAUUACUGCUGAGUGGGCAGAGGUGUACGAAGUUUCAGCCUGUGAUAACAACUCAGGCUGAAGCUUCGUGCAC
# B7: hsa-mir-3201 (structured_RNA)
# RNA: GGGAAACGAUAACUGUGUCCGCCAGACCGGUGUACGAAGUUUCAGCAAAUAAGAGGCUAGGAUUGCCUCUUAUUUGCUGAAGCUUCGUGCAC
# B8: hsa-mir-367 (structured_RNA)
# RNA: GGGACCUAGCGGCGAUGGACUGCUUAACGGUGUACGAAGUUUCAGCAACUCUGUUGAAUAUAAAUUGGAAUUGCUGAAGCUUCGUGCAC
# B9: hsa-mir-450b (structured_RNA)
# RNA: GGGACACUGGAGUUCUAUGACUAACGCCGGUGUACGAAGUUUCAGCUGAAUAUGUAAUAUAAGUGUAUUGGCUGAAGCUUCGUGCAC
# B10: hsa-mir-889 (structured_RNA)
# RNA: GGGACGAACCUCAAGGGUCCAAGCAUGUGGUGUACGAAGUUUCAGCAUGGUCUCUAUAUUUAUGAUGAUUAAGCUGAAGCUUCGUGCAC
# B11: hsa-mir-3689b (structured_RNA)
# RNA: GGGAAAGAAUUUGCCGUCGGUGCCACAUGGUGUACGAAGUUUCAGCCUGGGAGGUGUGAUCCCGUGCUUCCUGGGCUGAAGCUUCGUGCAC
# B12: hsa-mir-4454 (structured_RNA)
# RNA: GGGAAGCAGGCUAUAGGCUAAUGACAACGGUGUACGAAGUUUCAGCCCAAAUUUCAUGCGGCUGAAGCUUCGUGCAC
# B13: PARIS_ID6 (structured_RNA)
# RNA: GGGAAAUGAGGGCAAGGGCCUACAACAAGGUGUACGAAGUUUCAGCGUGACACUGUUUUGUGAGAUGGGUUGAAAGCACGUGCUGCCAAAAUAGAAUAAUGUUGGUCCUCUCCUCAUGUGCCGUGGAACGCUGAAGCUUCGUGCAC
# B14: hsa-mir-5586 (structured_RNA)
# RNA: GGGAAGACGAUAAACCAUCUACGUCCCAGGUGUACGAAGUUUCAGCUAUAUGCUUUUUAAAUGGGGCACAGAGCUGAAGCUUCGUGCAC
# B15: hsa-mir-466 (structured_RNA)
# RNA: GGGACACGCUGGGGAUGACCAUUUAUUAGGUGUACGAAGUUUCAGCAUAUGUGUGUAUAUAUGUACACAUACGCUGAAGCUUCGUGCAC
# B16: hsa-mir-3940 (structured_RNA)
# RNA: GGGACGCUGGUCCCUCUUAACCUAGAGCGGUGUACGAAGUUUCAGCGCUCUGGGGAUUUGGUCUCACAGCGCUGAAGCUUCGUGCAC
# B17: hsa-mir-1343 (structured_RNA)
# RNA: GGGAGAUGACGAACUAUUCCAGCCAGUUGGUGUACGAAGUUUCAGCGGUGGGCCUCUGCUCUGGCCCCUCCGCUGAAGCUUCGUGCAC
# B18: hsa-mir-4678 (structured_RNA)
# RNA: GGGAAACGAAACGUCGUGAAGAUUAAUGGGUGUACGAAGUUUCAGCAUGAUUUUUGGGGUCAGCUGAAGCUUCGUGCAC
# B19: hsa-mir-149 (structured_RNA)
# RNA: GGGAAAGUACAGCGGCGCUUAAACUGUCGGUGUACGAAGUUUCAGCCACUCCCGUGCUUGUCCGAGGAGGGAGGGCUGAAGCUUCGUGCAC
# B20: NEAT1_ParasoR_ID11 (structured_RNA)
# RNA: GGGAAGCAGGAACACUCCACGUAACUACGGUGUACGAAGUUUCAGCAAAUGGUUCUUAACAUUUGCUGAAGCUUCGUGCAC
# B21: hsa-mir-4327 (structured_RNA)
# RNA: GGGAAAAUACGAGUAAGCUUUGCCGCAUGGUGUACGAAGUUUCAGCCUGGGAAGAGACCAUGAACAGGUUAGUCCAGGCUGAAGCUUCGUGCAC
# B22: hsa-mir-873 (structured_RNA)
# RNA: GGGAGCUGCCCCGCCUGGAGAUAAAAUCGGUGUACGAAGUUUCAGCCUCCUAUUGAAAAUGAACAGGAGGCUGAAGCUUCGUGCAC
# B23: hsa-mir-526b_518a-1 (structured_RNA)
# RNA: GGGAAUUGACUGCGAGUUUUAACAGGCCGGUGUACGAAGUUUCAGCUUUCUGUUGUCUGAAAGAAGAGAAAGCUGAAGCUUCGUGCAC
# B24: hsa-mir-181a-1 (structured_RNA)
# RNA: GGGAGCGACUGGCCGUUAUACAGUAAACGGUGUACGAAGUUUCAGCGAGUUUGGAAUUAAAAUCAAAACCGCUGAAGCUUCGUGCAC
# B25: hsa-mir-544a (structured_RNA)
# RNA: GGGAGAUAAGGUUAAGAUGAUGGCAAGGGGUGUACGAAGUUUCAGCGAUUCUGAUUCAGGGACCAAGAUUCGCUGAAGCUUCGUGCAC
# Columns and labels:
# Test in all cases: FOREST: bead pull-down of RNA structure library v1, barcode microarray; U1A/LIN28A: 20 mM HEPES pH 7.5, 80 mM KCl, 20 mM NaCl, 10% glycerol, 2 mM DTT, 0.1 ug/uL BSA, 4 C; BG4/CIRBP/DHX36: 10 mM Tris-HCl pH 7.5, 100 mM KCl (or LiCl),; high values mean tight binding
# [1] = biological target: T1, LIN28A
# [2] = biological target: T2, CIRBP
# [3] = biological target: T3, DHX36
Binder,binding signal [1],binding signal [2],binding signal [3]
B1,0.268 z-score,1.14 z-score,0.0169 z-score
B2,0.268 z-score,-0.135 z-score,-0.192 z-score
B3,0.267 z-score,0.958 z-score,0.396 z-score
B4,0.266 z-score,-0.318 z-score,0.877 z-score
B5,0.266 z-score,1.47 z-score,-0.632 z-score
B6,0.266 z-score,0.368 z-score,0.184 z-score
B7,0.265 z-score,0.964 z-score,1.27 z-score
B8,0.262 z-score,-0.448 z-score,-0.0567 z-score
B9,0.259 z-score,-0.083 z-score,-0.428 z-score
B10,0.252 z-score,0.0878 z-score,-0.429 z-score
B11,0.252 z-score,0.867 z-score,-0.351 z-score
B12,0.25 z-score,0.0161 z-score,-0.508 z-score
B13,0.249 z-score,0.169 z-score,0.507 z-score
B14,0.247 z-score,0.434 z-score,-0.215 z-score
B15,0.247 z-score,-0.458 z-score,-0.305 z-score
B16,0.247 z-score,-0.277 z-score,-0.194 z-score
B17,0.245 z-score,-0.19 z-score,0.0689 z-score
B18,0.244 z-score,1.1 z-score,-0.106 z-score
B19,0.244 z-score,-0.658 z-score,-0.475 z-score
B20,0.244 z-score,-0.284 z-score,0.0905 z-score
B21,0.242 z-score,0.0538 z-score,-0.0255 z-score
B22,0.239 z-score,0.454 z-score,0.233 z-score
B23,0.239 z-score,0.709 z-score,-0.448 z-score
B24,0.239 z-score,-0.634 z-score,-0.858 z-score
B25,0.232 z-score,1.2 z-score,1.02 z-score
